Reference: patent publication EP4847509A1, “GLP-1 RECEPTOR AGONIST, AND PREPARATION METHOD THEREFOR AND USE THEREOF” (dated 2026)
pEC50: −log10 of the molar value.

Chains of the proteins cited; added tags and fusions are not shown. Residues count along the entry.
UniProt P43220, 24-463 limits assumed: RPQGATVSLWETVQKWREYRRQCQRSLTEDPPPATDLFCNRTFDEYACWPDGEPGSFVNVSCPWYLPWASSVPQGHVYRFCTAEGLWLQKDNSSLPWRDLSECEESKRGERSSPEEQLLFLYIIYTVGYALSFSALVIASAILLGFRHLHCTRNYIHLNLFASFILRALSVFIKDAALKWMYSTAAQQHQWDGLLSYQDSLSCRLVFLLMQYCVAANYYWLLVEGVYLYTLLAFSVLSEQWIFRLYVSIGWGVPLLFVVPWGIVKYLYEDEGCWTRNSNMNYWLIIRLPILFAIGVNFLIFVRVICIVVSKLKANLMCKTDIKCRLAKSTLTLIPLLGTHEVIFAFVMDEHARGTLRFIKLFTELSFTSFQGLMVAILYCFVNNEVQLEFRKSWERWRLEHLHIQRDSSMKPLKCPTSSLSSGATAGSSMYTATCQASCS

Key:
GLP-1 receptors = GLP-1 receptors (Homo sapiens, UniProt P43220); test: cAMP agonism test in HEK293 cells with high expression of hGLP-1R (titled in vitro cell viability test); conditions: cAMP detection
[1] = Stability in liver microsome; conditions: human liver microsome 0.5 mg/mL, 1 µM test substance, NADPH, 37°C
[2] = Pharmacokinetic study in mice; conditions: C57BL/6 mice, po, 10 mg/kg
[3] = Pharmacokinetic study in Cynomolgus monkeys; conditions: po, 5 mg/kg
[4] = Kinetic solubility in FaSSIF; conditions: FaSSIF pH 6.5, 25°C, 2 h, 100 µM final concentration, 0.5% DMSO
[5] = Pharmacokinetic study in rats; conditions: SD rat, po, 5 mg/kg

Compound	pEC50 (GLP-1 receptors)	Human T1/2 [1]	AUC0-24 h [2]	Cmax [2]	T1/2 [2]	AUC0-24 h [3]	Cmax [3]	T1/2 [3]	FaSSIF pH 6.5 [4]	AUC0-24 h [5]	Cmax [5]	T1/2 [5]
3-((1S,2S)-1-(5-((S)-2,2-dimethyltetrahydro-2H-pyran-4-yl)-2-((S)-3-(3-(4-fluoro-1-methyl-1H-indazol-5-yl)-2-oxo-2,3-dihydro-1H-imidazol-1-yl)-2-(4-fluoro-3,5-dimethylphenyl)-4,7,7-trimethyl-4,5,6,7-tetrahydro-2H-pyrazole[4,3-c]pyridine-5-carbonyl)-1H-indol-1-yl)-2-methylcyclopropyl)-1,2,4-oxadiazol-5(4H)-one	8.99											
[2H]C([2H])([2H])n1ncc2c(F)c(-n3ccn(-c4c5c(nn4-c4cc(C)c(F)c(C)c4)C4(CC4)CN(C(=O)c4cc6cc([C@H]7CCOC(C)(C)C7)ccc6n4[C@@]4(c6noc(=O)[nH]6)C[C@@H]4C)[C@H]5C)c3=O)ccc21		>184 min										
Cc1cc(-n2nc3c(c2-n2ccn(-c4ccc5c(cnn5C5CC5)c4F)c2=O)[C@H](C)N(C(=O)c2cc4cc([C@H]5CCOC(C)(C)C5)ccc4n2C2(c4noc(=O)[nH]4)CC2)CC3(C)C)cc(C)c1F	9.02	>184 min	131.001 µg·h/mL	8757 ng/mL	8.71 h	4826 ng·h/mL	376 ng/mL	9.2 h	54.20 µM	19113 ng·h/mL	2320 ng/mL	2.86 h
Cc1cc(-n2nc3c(c2-n2ccn(-c4ccc5c(cnn5C)c4F)c2=O)[C@H](C)N(C(=O)c2cc4cc([C@H]5CCOC(C)(C)C5)ccc4n2[C@@]2(c4noc(=O)[nH]4)C[C@@H]2C)CC3)cc(C)c1F									0.36 µM			
Cc1cc(-n2nc3c(c2-n2ccn(-c4ccc5c(cnn5C5CC5)c4F)c2=O)[C@H](C)N(C(=O)c2cc4cc([C@H]5CCOC(C)(C)C5)ccc4n2C2(c4noc(=O)[nH]4)CC2)CC32CC2)cc(C)c1F	8.90	>184 min	124.788 µg·h/mL	6877 ng/mL	20.3 h	4599 ng·h/mL	298 ng/mL	6.33 h	63.34 µM	20358 ng·h/mL	2083 ng/mL	4.44 h
Cc1cc(-n2nc3c(c2-n2ccn(-c4ccc5c(cnn5C)c4F)c2=O)[C@H](C)N(C(=O)c2cc4cc([C@H]5CCOC(C)(C)C5)ccc4n2[C@@]2(c4noc(=O)[nH]4)C[C@@H]2C)CC32CC2)cc(C)c1F			66.26 µg·h/mL	4583 ng/mL	27.3 h	5291 ng·h/mL	406 ng/mL	10.6 h	85.92 µM	21158 ng·h/mL	2020 ng/mL	10.9 h
Cc1cc(-n2nc3c(c2-n2ccn(-c4ccc5c(cnn5C)c4F)c2=O)[C@H](C)N(C(=O)c2cc4cc([C@H]5CCOC(C)(C)C5)ccn4c2C2(c4noc(=O)[nH]4)CC2)CC3(C)C)cc(C)c1F	8.99											
Cc1cc(-n2nc3c(c2-n2ccn(-c4ccc5c(cnn5C)c4F)c2=O)[C@H](C)N(C(=O)c2cc4cc(C5CCOCC5)ccc4n2[C@@]2(c4noc(=O)[nH]4)C[C@@H]2C)CC32CC2)cc(C)c1F			137.222 µg·h/mL	9050 ng/mL	10 h					19867 ng·h/mL	1553 ng/mL	10.8 h
